Our source for the Ki values is paper PMC3464052 (Journal of medicinal chemistry, 2012).

Amino acid sequences for entries named in this document (tags omitted). A change or cut given only in a name is not applied to a line headed by its entry.
UniProt I6L8L2: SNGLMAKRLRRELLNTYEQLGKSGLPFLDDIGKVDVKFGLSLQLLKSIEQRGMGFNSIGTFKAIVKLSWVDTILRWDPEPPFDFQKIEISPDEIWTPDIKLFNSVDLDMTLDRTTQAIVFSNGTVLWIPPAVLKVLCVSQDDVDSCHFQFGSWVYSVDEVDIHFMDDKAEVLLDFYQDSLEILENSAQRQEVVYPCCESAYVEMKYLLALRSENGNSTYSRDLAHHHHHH

The experiment concerns the target Ct-AChBP (Capitella teleta, UniProt I6L8L2). Put plainly: biochemical. It is filed as binding.

Consider `CN1CCC[C@H]1c1cccnc1` [compound 1, nicotine, reference compound], for which the affinity, expressed as Ki, was 496 ± 30 nM.
